Earlier results as cited in patent US11236066B2, “Crystalline forms of niraparib tosylate” (Apotex Inc., priority 2019, dated 2022).

What was measured:
[1] = CHMP Assessment Report description; cited from earlier work
[2] = CHMP Assessment Report description; cited from earlier work; remark: listed apart in the source

Cc1ccc(S(=O)(=O)O)cc1.NC(=O)c1cccc2cn(-c3ccc([C@@H]4CCCNC4)cc3)nc12 [Niraparib tosylate crystalline Form I, 2-{4-[(3S)-piperidin-3-yl]phenyl}-2H-indazole 7-carboxamide 4-methylbenzenesulfonate]
Permeability [1]: high | Aqueous solubility [2]: low, pH-independent
